Measurements as given in patent US20230210832A1, “METHODS FOR TREATING ALZHEIMER'S DISEASE” (priority 2020, published 2023).

The chains behind the UniProt entries cited, without tags or fusion partners. Where a name states a change or a piece, a line headed by the entry shows the natural chain unless it says otherwise.
UniProt P05067: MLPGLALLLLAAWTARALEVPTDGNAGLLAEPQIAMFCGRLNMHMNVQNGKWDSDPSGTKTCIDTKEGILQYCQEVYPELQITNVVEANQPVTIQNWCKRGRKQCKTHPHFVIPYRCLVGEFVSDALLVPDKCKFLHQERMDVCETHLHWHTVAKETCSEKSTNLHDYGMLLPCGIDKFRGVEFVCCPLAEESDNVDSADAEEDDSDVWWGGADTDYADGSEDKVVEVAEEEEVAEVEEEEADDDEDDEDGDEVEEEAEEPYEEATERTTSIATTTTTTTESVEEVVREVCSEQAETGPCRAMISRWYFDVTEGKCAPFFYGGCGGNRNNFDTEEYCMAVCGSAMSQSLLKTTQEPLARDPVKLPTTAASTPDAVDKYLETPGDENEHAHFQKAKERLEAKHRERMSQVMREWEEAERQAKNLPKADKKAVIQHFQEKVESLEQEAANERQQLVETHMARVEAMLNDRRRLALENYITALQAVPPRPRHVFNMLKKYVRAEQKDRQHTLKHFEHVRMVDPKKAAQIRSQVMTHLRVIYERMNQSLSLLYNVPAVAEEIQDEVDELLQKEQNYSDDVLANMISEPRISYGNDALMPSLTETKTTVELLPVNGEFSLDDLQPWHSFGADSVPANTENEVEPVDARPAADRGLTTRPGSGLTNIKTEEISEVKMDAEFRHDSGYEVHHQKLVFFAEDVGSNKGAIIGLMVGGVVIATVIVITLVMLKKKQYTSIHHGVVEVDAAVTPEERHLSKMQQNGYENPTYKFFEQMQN

Tests used:
HBEC-5i cells = test: Proximity ligation assay (PLA) in HBEC-5i cells; assay type: cell-based, human; details: 10 uM peptide, vs PBS (negative control)
Experimental: Proximity Ligation Assay (PLA): HBEC-5i cells were seeded into culture slides in 24 well plates (75,000 cells/well) in 500 μL of DMEM media supplemented with 10% fetal bovine serum. After 24 h, cells were washed with PBS and treated with 10 uM of Aβ peptide in serum free DMEM media. The next day after treatment, cells were washed twice with PBS and fixed in 4% PFA. For PLA analysis, cells were blocked with 3% BSA, permeabilized with triton-X, 0.5% and incubated with 1/500 dilution of Anti-Angiopoietin 2 (ab8452, abcam), 1/200 dilution of anti-β-Amyloid (#39377, abcam), 1/500 dilution of anti-β-Amyloid (#93320, Biolegend), 1/200 of anti-tie2 (#05-584, Millipore) or 1/200 of Anti-VEGF Receptor 2 antibody (ab11939, abcam) for overnight at 4 degree. Protein-protein interactions were analyzed using Duolink-based in situ PLA (Sigma-Aldrich), according to manufacturer's instructions. Signals were quantified using a confocal microscope and the Duolink Image Tool. Statistical analysis was performed on GraphPad Prism using Kruskal wallis test followed by Tukey's multiple comparison (*p<0.05; **p<0.01; ***p<0.001).

[1] = system: Human brain endothelial cells (HBEC-5i); test: Western blot of HBEC-5i cell lysates after peptide treatment; assay type: cell-based
Experimental: Human brain endothelial cells, HBEC-5i (ATCC® CRL-3245™) were cultured on 0.1% gelatin coated tissue culture plates in DMEM-F12 media (Gibco; cat. #10565-018) supplemented by 10% heat-inactivated fetal bovine serum (FBS) (Gibco; cat. #A31607-01) and 40 μg/ml endothelial growth supplement (Sigma-Aldrich; cat. #E2759). Cells were grown until they reached 70% confluency and then used for experiments.
Cell culture: Human brain endothelial cells were grown in 10 cm tissue culture plates. The cells were treated with either PBS, Aβ1-42 peptide (10 μM), Aβ1-16 peptide (10 μM), Ang-2 peptide (200 ng/ml) or VEGFA-165 (100 ng/ml) peptide for 24 hrs in a starving medium. After the treatment, the medium was removed, and cells were washed with PBS and then lysed with RIPA buffer that contained protease and phosphatase inhibitors. These cells were then used to analyze different proteins of interest.
Immunoblotting analysis and co-immunoprecipitation: For western blot analysis, the fractional homogenate samples were prepared with Dithiothreitol (DTT) in the sample buffer (100 mM Tris-Cl (pH 6.8), 4% (w/v) SDS, 0.2% (w/v) bromophenol blue, 20% (v/v) glycerol and 200 mM DTT). Homogenates were electrophoresed and immunoblotted with indicated antibodies. For co-immunoprecipitation, homogenates were first pre-cleaned by incubating with a bead slurry and centrifuged at 14,000×g for 4 minutes at 4° C. Beads were discarded, and supernatant kept for co-immunoprecipitation. Protein A or protein G beads were washed twice with wash buffer (10 mM Tris HCl pH 7.4, 150 mM NaCl, 1% Nonidet P-40, 1 mM EDTA, 1× Halt protease and phosphatase inhibitor cocktail and 20 mM N-Ethylmaleimide), centrifuged at 3,000×g for 2 minutes at 4° C. and incubated with the indicated antibody for 4 hours at 4° C. on a rotating shaker. Beads were then washed twice and incubated with pre-cleaned homogenates overnight at 4° C. Beads were washed, and the complex was eluted by using 2×50 μl SDS loading buffer without DTT and heating at 50° C. for 10 minutes. A second elution was carried out by 2×SDS buffer in the presence of DTT. The proteins in the eluate were resolved on the acrylamide gel according to standard practices. Immunoblotting was performed on nitrocellulose membranes using primary antibodies against the various proteins. The signal intensities were imaged by using the Odyssey infrared image system (LICOR), and relative levels of immunoreactivity were analyzed by the Image Studio Lite software.

For “Aβ1-16 peptide: Aβ1-16 peptide (AnaSpec; AS-24225), soluble amyloid species (DAEFRHDSGYEVHHQK; Amyloid-beta protein 42; UniProt P05067 672-687, looked up, fragment)”, the “interaction between Aβ and Tie-2, and Aβ and Ang-2 (PLA signal)” value (HBEC-5i cells) was “significant interaction”, the “phosphorylated VEGFR2” value ([1]; 24 hrs, 10 μM, compared to the other treatments) was “also increased” and the Tie-2 receptor expression ([1]; 24 hrs, 10 μM, vs PBS or Aβ1-42 peptide) was “upregulated”. For the same substance, the Ang-2 expression ([1]; 24 hrs, 10 μM, vs control or Aβ1-42 peptide-treated cells) was “upregulation of Ang-2”, the “expression of VEGFR2” value ([1]; 24 hrs, Aβ peptides 10 μM, Ang-2 200 ng/ml, VEGFA-165 100 ng/ml, vs PBS-treated cells) was “increase in the expression of VEGFR2” and the “expression of CD105” value ([1]; vs PBS-treated or Aβ (1-42)-treated cells) was “higher expression of CD105”.
